# Data as given in patent US20250163048A1 (Tango Therapeutics, Inc., priority 2022, published 2025).
# System: HAP1 MTAP-deleted cell line
# Assay: SDMA in-cell western assay, HAP1 MTAP-deleted
# Settings: IC50 ratio between HAP1 MTAP-intact and HAP1 MTAP-deleted cell line
Compound,Hap1 MTAP intact/deleted ratio (SDMA in-cell western assay),Hap1 MTAP intact/deleted ratio (SDMA in-cell western)
"CC(C)[C@@H]1CC[C@@H](C)CN1C(=O)C(=O)Nc1cnc(N)c2cn[nH]c12 (racemic) [Compound 244, N-(4-amino-1H-pyrazolo[4,3-c]pyridin-7-yl)-2-(rac-(2S,5R)-2-isopropyl-5-methylpiperidin-1-yl)-2-oxoacetamide]",A (“A” indicates an IC50 ratio greater than or equal to 30 fold),–
"[2H]c1c([2H])c([2H])c([C@H]2CC[C@H](C)CN2C(=O)C(=O)Nc2cnc(N)c3cn[nH]c23)c([2H])c1[2H] (single isomer, unassigned) [Compound 268]",B (“B” indicates an IC50 ratio greater than or equal to 15 fold but lower than 30 fold),–
"[2H]c1c([2H])c([2H])c([C@@H]2CC[C@H](C)CN2C(=O)C(=O)Nc2cnc(N)c3cn[nH]c23)c([2H])c1[2H] (single isomer, unassigned) [Compound 286]",B (“B” indicates an IC50 ratio greater than or equal to 15 fold but lower than 30 fold),–
"C[C@H]1CC[C@H](c2ccc3scnc3c2)N(C(=O)C(=O)Nc2cnc(N)c3cn[nH]c23)C1 [Compound 17, N-(4-amino-1H-pyrazolo[4,3-c]pyridin-7-yl)-2-[(2R,5S)-2-(1,3-benzothiazol-5-yl)-5-methyl-1-piperidyl]-2-oxo-acetamide]",–,B (“B” indicates an IC50 ratio greater than or equal to 15 fold but lower than 30 fold)
"C[C@H]1CC[C@H](c2ccc3sc(C4CCN(C)CC4)nc3c2)N(C(=O)C(=O)Nc2cnc(N)c3cn[nH]c23)C1 [Compound 105, N-(4-amino-1H-pyrazolo[4,3-c]pyridin-7-yl)-2-oxo-2-[(2R,5S)-5-methyl-2-[2-(1-methyl-4-piperidyl)-1,3-benzothiazol-5-yl]-1-piperidyl]acetamide]",–,C (“C” indicates an IC50 ratio of less than 15 fold)
"C[C@H]1CC[C@H](c2ccccc2)N(C(=O)C(=O)Nc2cnc(N)c3cn[nH]c23)C1 [Compound 126, N-(4-amino-1H-pyrazolo[4,3-c]pyridin-7-yl)-2-oxo-2-[(2R,5S)-5-methyl-2-phenyl-1-piperidyl]acetamide]",–,B (“B” indicates an IC50 ratio greater than or equal to 15 fold but lower than 30 fold)
"C[C@H]1CC[C@H](C2CC2)N(C(=O)C(=O)Nc2cnc(N)c3cn[nH]c23)C1 [Compound 277, N-(4-Amino-1H-pyrazolo[4,3-c]pyridin-7-yl)-2-oxo-2-[(2R,5S)-2-cyclopropyl-5-methyl-1-piperidyl]acetamide]",A (“A” indicates an IC50 ratio greater than or equal to 30 fold),–
